Values of other authors, collected in patent US20090304663A1, “USE OF GSK-3 INHIBITORS FOR THE TREATMENT OF PROSTATE CANCER” (IMPERIAL INNOVATIONS LIMITED, priority 2004, published 2009).

Protein sequences, listed by entry. Tags and fused reporters are not part of them.
UniProt P49841, whole entry, species assumed: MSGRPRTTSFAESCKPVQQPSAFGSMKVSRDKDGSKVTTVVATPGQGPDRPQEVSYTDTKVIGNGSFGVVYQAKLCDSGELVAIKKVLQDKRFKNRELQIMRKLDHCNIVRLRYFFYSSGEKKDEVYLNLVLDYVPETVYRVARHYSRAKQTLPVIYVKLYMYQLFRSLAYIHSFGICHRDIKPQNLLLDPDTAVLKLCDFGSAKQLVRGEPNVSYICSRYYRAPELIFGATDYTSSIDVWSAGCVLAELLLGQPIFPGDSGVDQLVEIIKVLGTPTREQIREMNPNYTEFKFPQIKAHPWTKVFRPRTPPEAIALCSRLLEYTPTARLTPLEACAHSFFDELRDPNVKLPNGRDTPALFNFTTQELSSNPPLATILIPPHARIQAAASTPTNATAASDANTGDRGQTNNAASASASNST

Target: GSK-3 β (Homo sapiens, UniProt P49841)
Conditions: cited from earlier work

Question: Which Ki does the source give for `O=C1NC(=O)C(c2cn(CCCO)c3ncccc23)=C1c1cnccn1` [3-(1-(3-Hydroxypropyl)-1H-pyrrolo[2,3-b]pyridin-3-yl]-4-pyrazin-2-yl-pyrrole-2,5-dione] here?
Answer: The Ki was 25 nM.
